Where a name gives a salt, the structure may show the parent alone.
Key:
Assay in all cases: Anti-proliferation assay (ATPLite), Chalice synergy score
Assay type in all cases: cell-based
[1] = system: HCC-1500; details: Compound 1 in combination with the named second active agent, 72 h, mean of n = 3 experiments in triplicate
Source text: (§1) Cells were thawed from a liquid nitrogen preserved state.
(§2) The calculation for synergy score is provided below.
(§3) If T≧V0:100*[1−(T−V0)/(V−V0)]

[2] = system: MDA-MB-468; details: Compound 1 in combination with second active agent, mean self-cross + 2σ threshold 4.66
Source text: as §1, §2, §3

[3] = system: MDA-MB-231; details: Compound 1 in combination with second active agent, mean self-cross + 2σ threshold 2.61
Source text: as §1, §2, §3

[4] = system: Hs-578-T; details: Compound 1 in combination with second active agent, mean self-cross + 2σ threshold 4.09
Source text: as §1, §2, §3

[5] = system: MDA-MB-436; details: Compound 1 in combination with second active agent, mean self-cross + 2σ threshold 1.91
Source text: as §1, §2, §3

C[C@@H](Oc1cc(-c2cnn(C3CCNCC3)c2)cnc1N)c1c(Cl)ccc(F)c1Cl [Crizotinib] was tested, and the Synergy score [1] was 1.76 and the Synergy score [2] was 1.41.
With COc1cccc2c1C(=O)c1c(O)c3c(c(O)c1C2=O)C[C@@](O)(C(=O)CO)C[C@@H]3O[C@H]1C[C@H](N)[C@H](O)[C@H](C)O1 [Doxorubicin Hcl, Doxorubicin HCl] the Synergy score [3] was 6.45.
C=CC(=O)N1CCC[C@@H](n2nc(-c3ccc(Oc4ccccc4)cc3)c3c(N)ncnc32)C1 [PCI-32765] was tested, and the Synergy score [4] was 1.04.
In the case of CNC(=O)c1cc(Oc2ccc(NC(=O)Nc3ccc(Cl)c(C(F)(F)F)c3)cc2)ccn1 [Sorafenib], the Synergy score [5] was 1.35.

— US9737535B2, “Methods for treating cancer using TOR kinase inhibitor combination therapy comprising administering substituted pyrazino[2,3-b]pyrazines” (Signal Pharmaceuticals, LLC, priority 2014, dated 2017)
